This is an account of results in US10280144B2, “Pyridazine derivatives as RORc modulators” (Genentech, Inc., priority 2015, dated 2019).

Sequences of proteins named here, by UniProt entry; tags and fusion partners are left off. Residues count along the entry.
UniProt P51449, 269-508: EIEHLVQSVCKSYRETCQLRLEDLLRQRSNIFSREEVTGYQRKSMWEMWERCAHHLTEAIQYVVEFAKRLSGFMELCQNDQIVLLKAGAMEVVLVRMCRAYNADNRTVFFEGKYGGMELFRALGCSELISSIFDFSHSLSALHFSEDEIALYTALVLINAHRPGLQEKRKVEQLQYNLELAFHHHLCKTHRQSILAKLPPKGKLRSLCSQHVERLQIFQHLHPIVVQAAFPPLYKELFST

The IC50 is the concentration that gives 50% inhibition. Low readings indicate greater potency, high ones weaker potency.

The target of this test is RORc ligand binding domain (Homo sapiens (Human), UniProt P51449). As to the kind of experiment: In Vitro RORc Ligand Binding Assay. The following applies: radioligand 25-[3H]hydroxycholesterol.
`CCN(C[C@@]12CC[C@@H](c3cc(-c4c(F)cccc4F)nnc31)C2(C)C)C(=O)c1ccc(-c2noc(C3CC3)n2)cc1` [Compound 98, 4-(5-cyclopropyl-1,2,4-oxadiazol-3-yl)-N-(((5R,8S)-3-(2,6-difluorophenyl)-9,9-dimethyl-5,6,7,8-tetrahydro-5,8-methanocinnolin-8-yl)methyl)-N-ethylbenzamide] had a concentration for half-maximal inhibition (IC50) of 6.9 nM.
To `CCN(C[C@@]12CC[C@@H](c3cc(-c4c(F)cccc4F)nnc31)C2(C)C)C(=O)CN1C(=O)CNC1=O` [Compound 104, N-(((5R,8S)-3-(2,6-difluorophenyl)-9,9-dimethyl-5,6,7,8-tetrahydro-5,8-methanocinnolin-8-yl)methyl)-2-(2,5-dioxoimidazolidin-1-yl)-N-ethylacetamide] belongs 80 nM; to `CCN(C[C@@]12CC[C@@H](c3cc(-c4c(F)cccc4F)nnc31)C2(C)C)C(=O)c1ccc(-c2ncn[nH]2)cc1` [Compound 105, N-(((5R,8S)-3-(2,6-difluorophenyl)-9,9-dimethyl-5,6,7,8-tetrahydro-5,8-methanocinnolin-8-yl)methyl)-N-ethyl-4-(1H-1,2,4-triazol-5-yl)benzamide], 55.5 nM; to `CCN(C[C@@]12CC[C@@H](c3cc(-c4c(F)cccc4F)nnc31)C2(C)C)C(=O)C1CCN(C(N)=O)CC1` [Compound 108, N4-(((5R,8S)-3-(2,6-difluorophenyl)-9,9-dimethyl-5,6,7,8-tetrahydro-5,8-methanocinnolin-8-yl)methyl)-N4-ethylpiperidine-1,4-dicarboxamide], 163 nM.
On to `CCN(C[C@@]12CC[C@@H](c3cc(-c4c(F)cccc4F)nnc31)C2(C)C)C(=O)C1CCS(=O)(=O)C1` (stereo partly drawn) [Compound 109, N-(((5R,8S)-3-(2,6-difluorophenyl)-9,9-dimethyl-5,6,7,8-tetrahydro-5,8-methanocinnolin-8-yl)methyl)-N-ethyltetrahydrothiophene-3-carboxamide 1,1-dioxide], for which the IC50 was found to be 70 nM.
Turning to `CCN(C[C@@]12CC[C@@H](c3cc(-c4c(F)cccc4F)nnc31)C2(C)C)C(=O)c1ccc(-n2ccnc2)nc1` [Compound 111, N-(((5R,8S)-3-(2,6-difluorophenyl)-9,9-dimethyl-5,6,7,8-tetrahydro-5,8-methanocinnolin-8-yl)methyl)-N-ethyl-6-(1H-imidazol-1-yl)nicotinamide], the half-inhibitory concentration (IC50) came out at 47.8 nM.
The compound `CCN(C[C@@]12CC[C@@H](c3cc(-c4c(F)cccc4F)nnc31)C2(C)C)C(=O)c1nc(N)n[nH]1` [Compound 113, 3-amino-N-(((5R,8S)-3-(2,6-difluorophenyl)-9,9-dimethyl-5,6,7,8-tetrahydro-5,8-methanocinnolin-8-yl)methyl)-N-ethyl-1H-1,2,4-triazole-5-carboxamide] yielded a 50% inhibitory concentration (IC50) of 56.4 nM.
The figure for `CCN(C[C@@]12CC[C@@H](c3cc(-c4c(F)cccc4F)nnc31)C2(C)C)S(=O)(=O)c1c(C)noc1C` [Compound 116, N-(((5R,8S)-3-(2,6-difluorophenyl)-9,9-dimethyl-5,6,7,8-tetrahydro-5,8-methanocinnolin-8-yl)methyl)-N-ethyl-3,5-dimethylisoxazole-4-sulfonamide] is 9.2 nM; for `CCN(C[C@@]12CC[C@@H](c3cc(-c4c(F)cccc4F)nnc31)C2(C)C)S(=O)(=O)c1ccc(F)cc1F` [Compound 122, N-(((5R,8S)-3-(2,6-difluorophenyl)-9,9-dimethyl-5,6,7,8-tetrahydro-5,8-methanocinnolin-8-yl)methyl)-N-ethyl-2,4-difluorobenzenesulfonamide] it is 9.1 nM; for `CCN(C[C@@]12CC[C@@H](c3cc(-c4c(F)cccc4F)nnc31)C2(C)C)S(=O)(=O)C1CC1` [Compound 128, N-(((5R,8S)-3-(2,6-difluorophenyl)-9,9-dimethyl-5,6,7,8-tetrahydro-5,8-methanocinnolin-8-yl)methyl)-N-ethylcyclopropanesulfonamide] it is 7.3 nM.
Compound `CCN(C[C@@]12CC[C@@H](c3cc(-c4c(F)cccc4F)nnc31)C2(C)C)S(=O)(=O)c1ncn[nH]1` [Compound 129, N-(((5R,8S)-3-(2,6-difluorophenyl)-9,9-dimethyl-5,6,7,8-tetrahydro-5,8-methanocinnolin-8-yl)methyl)-N-ethyl-1H-1,2,4-triazole-5-sulfonamide] showed an IC50 of 57.9 nM.
The figure for `CCN(C[C@@]12CC[C@@H](c3cc(-c4c(F)cccc4F)nnc31)C2(C)C)S(=O)(=O)c1cccnc1` [Compound 132, N-(((5R,8S)-3-(2,6-difluorophenyl)-9,9-dimethyl-5,6,7,8-tetrahydro-5,8-methanocinnolin-8-yl)methyl)-N-ethylpyridine-3-sulfonamide] is 24.1 nM.
Consider `CCN(C[C@@]12CC[C@@H](c3cc(-c4c(F)cccc4F)nnc31)C2(C)C)S(=O)(=O)Cc1ccc(F)cc1F` [Compound 133, 1-(2,4-difluorophenyl)-N-(((5R,8S)-3-(2,6-difluorophenyl)-9,9-dimethyl-5,6,7,8-tetrahydro-5,8-methanocinnolin-8-yl)methyl)-N-ethylmethanesulfonamide], for which the IC50 is 2.6 nM.
As for `CCN(C[C@@]12CC[C@@H](c3cc(-c4c(F)cccc4F)nnc31)C2(C)C)S(=O)(=O)c1cn(C(F)F)nc1C` [Compound 135, 1-(difluoromethyl)-N-(((5R,8S)-3-(2,6-difluorophenyl)-9,9-dimethyl-5,6,7,8-tetrahydro-5,8-methanocinnolin-8-yl)methyl)-N-ethyl-3-methyl-1H-pyrazole-4-sulfonamide], the IC50 stood at 11 nM.
To `CCN(C[C@@]12CC[C@@H](c3cc(-c4c(F)cccc4F)nnc31)C2(C)C)S(=O)(=O)Cc1ccncc1` [Compound 144, N-(((5R,8S)-3-(2,6-difluorophenyl)-9,9-dimethyl-5,6,7,8-tetrahydro-5,8-methanocinnolin-8-yl)methyl)-N-ethyl-1-(pyridin-4-yl)methanesulfonamide] belongs 10.8 nM; to `CCN(C[C@@]12CC[C@@H](c3cc(-c4c(F)cccc4F)nnc31)C2(C)C)S(=O)(=O)Cc1ccccn1` [Compound 145, N-(((5R,8S)-3-(2,6-difluorophenyl)-9,9-dimethyl-5,6,7,8-tetrahydro-5,8-methanocinnolin-8-yl)methyl)-N-ethyl-1-(pyridin-2-yl)methanesulfonamide], 9.2 nM; to `CCN(C[C@@]12CC[C@@H](c3cc(-c4c(F)cccc4F)nnc31)C2(C)C)S(=O)(=O)c1cc(F)ccc1F` [Compound 146, N-(((5R,8S)-3-(2,6-difluorophenyl)-9,9-dimethyl-5,6,7,8-tetrahydro-5,8-methanocinnolin-8-yl)methyl)-N-ethyl-2,5-difluorobenzenesulfonamide], 7.9 nM.
The compound `CCN(C[C@@]12CC[C@@H](c3cc(-c4c(F)cccc4F)nnc31)C2(C)C)S(=O)(=O)Cc1cc(F)ccc1F` [Compound 149, 1-(2,5-difluorophenyl)-N-(((5R,8S)-3-(2,6-difluorophenyl)-9,9-dimethyl-5,6,7,8-tetrahydro-5,8-methanocinnolin-8-yl)methyl)-N-ethylmethanesulfonamide] returned an IC50 of 2.9 nM.
The figure for `CCN(C[C@@]12CC[C@@H](c3cc(-c4c(F)cccc4F)nnc31)C2(C)C)S(=O)(=O)c1cnoc1C` [Compound 151, N-(((5R,8S)-3-(2,6-difluorophenyl)-9,9-dimethyl-5,6,7,8-tetrahydro-5,8-methanocinnolin-8-yl)methyl)-N-ethyl-5-methylisoxazole-4-sulfonamide] is 25.9 nM; for `CCN(C[C@@]12CC[C@@H](c3cc(-c4c(F)cccc4F)nnc31)C2(C)C)C(=O)c1cc(O)ccn1` [Compound 155, N-(((5R,8S)-3-(2,6-difluorophenyl)-9,9-dimethyl-5,6,7,8-tetrahydro-5,8-methanocinnolin-8-yl)methyl)-N-ethyl-4-hydroxypicolinamide] it is 96.9 nM; for `CCN(C[C@@]12CC[C@@H](c3cc(-c4c(F)cccc4F)nnc31)C2(C)C)S(=O)(=O)Cc1ccccc1` [Compound 159, N-(((5R,8S)-3-(2,6-difluorophenyl)-9,9-dimethyl-5,6,7,8-tetrahydro-5,8-methanocinnolin-8-yl)methyl)-N-ethyl-1-phenylmethanesulfonamide] it is 3.5 nM.
To `CCN(C[C@@]12CC[C@@H](c3cc(-c4c(F)cccc4F)nnc31)C2(C)C)C(=O)Cc1n[nH]c(=O)[nH]1` [Compound 162, N-(((5R,8S)-3-(2,6-difluorophenyl)-9,9-dimethyl-5,6,7,8-tetrahydro-5,8-methanocinnolin-8-yl)methyl)-N-ethyl-2-(5-oxo-4,5-dihydro-1H-1,2,4-triazol-3-yl)acetamide] belongs 19.3 nM.
`CCN(C[C@@]12CC[C@@H](c3cc(-c4c(F)cccc4F)nnc31)C2(C)C)C(=O)c1ncco1` [Compound 165, N-(((5R,8S)-3-(2,6-difluorophenyl)-9,9-dimethyl-5,6,7,8-tetrahydro-5,8-methanocinnolin-8-yl)methyl)-N-ethyloxazole-2-carboxamide]: the IC50 is 4.6 nM.
In the case of `CCN(C[C@@]12CC[C@@H](c3cc(-c4c(F)cccc4F)nnc31)C2(C)C)C(=O)CN1CCS(=O)(=O)CC1` [Compound 170, N-(((5R,8S)-3-(2,6-difluorophenyl)-9,9-dimethyl-5,6,7,8-tetrahydro-5,8-methanocinnolin-8-yl)methyl)-2-(1,1-dioxidothiomorpholino)-N-ethylacetamide], the IC50 turned out to be 61.9 nM.
Take `CCN(C[C@@]12CC[C@@H](c3cc(-c4c(F)cccc4F)nnc31)C2(C)C)C(=O)c1ccc(CC#N)nn1` [Compound 178, 6-(cyanomethyl)-N-(((5R,8S)-3-(2,6-difluorophenyl)-9,9-dimethyl-5,6,7,8-tetrahydro-5,8-methanocinnolin-8-yl)methyl)-N-ethylpyridazine-3-carboxamide]: the half-inhibitory concentration (IC50) is 93.7 nM.
As to `CCN(C[C@@]12CC[C@@H](c3cc(-c4c(F)cccc4F)nnc31)C2(C)C)C(=O)CN1CCC(O)CC1` [Compound 179, N-(((5R,8S)-3-(2,6-difluorophenyl)-9,9-dimethyl-5,6,7,8-tetrahydro-5,8-methanocinnolin-8-yl)methyl)-N-ethyl-2-(4-hydroxypiperidin-1-yl)acetamide], the IC50 amounted to 306 nM.
